The results in this text go back to ChEMBL document CHEMBL4406909, “Synthesis and evaluation of 1,3,5-triazine derivatives as sunscreens useful to prevent skin cancer” (Bioorg Med Chem Lett, 2019).

Holding throughout (assay type): functional
A short description of test [1]: Antioxidant activity assessed as DPPH free radical scavenging activity at 100 uM incubated for 60 mins by spectrophotometric method relative to control. Background: DPPH is a stable violet radical that fades when it is reduced.
Test [2] can be described thus: Antioxidant activity assessed as DPPH free radical scavenging activity at 300 uM incubated for 60 mins by spectrophotometric method relative to control.
Test [3] is described as follows: Antioxidant activity assessed as DPPH free radical scavenging activity at 400 uM incubated for 60 mins by spectrophotometric method relative to control.
Test [4] is described as follows: Antioxidant activity assessed as DPPH free radical scavenging activity at 200 uM incubated for 60 mins by spectrophotometric method relative to control.

Regarding `O=C1O[C@H]([C@@H](O)CO)C(O)=C1O`, the Activity in test [1] was determined as 77.8%; in test [2], 81.7%; in test [3], 82.1%; in test [4], 81.5%.
